This assay deals with KOP Y312^7.35W (Homo sapiens, UniProt P41145, Y312W). As to conditions: N = 3.

Chains of the proteins cited; added tags and fusions are not shown.
UniProt P41145, whole entry Y312W: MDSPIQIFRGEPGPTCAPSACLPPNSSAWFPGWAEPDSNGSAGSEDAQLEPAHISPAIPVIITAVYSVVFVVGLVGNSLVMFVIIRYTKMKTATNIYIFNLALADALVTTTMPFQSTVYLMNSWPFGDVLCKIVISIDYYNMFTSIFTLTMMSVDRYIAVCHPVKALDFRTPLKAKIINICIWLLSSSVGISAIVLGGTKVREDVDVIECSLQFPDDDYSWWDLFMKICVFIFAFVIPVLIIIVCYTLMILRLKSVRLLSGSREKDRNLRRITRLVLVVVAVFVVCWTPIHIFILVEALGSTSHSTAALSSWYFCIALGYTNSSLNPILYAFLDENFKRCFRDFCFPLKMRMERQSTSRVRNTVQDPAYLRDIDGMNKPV

What is called EC50 is the midpoint of the concentration-response curve.

With `O=C(N[C@@H]1CC[C@@]2(O)[C@H]3Cc4ccc(O)c5c4[C@@]2(CCN3CC2CC2)[C@H]1O5)c1cccc(I)c1` [IBNtxA], the “Emax arrestin recruitment in KOP Y312^7.35W” value amounted to 52±4. Besides, for the setting “read-out: EC50 arrestin recruitment in KOP Y312^7.35W”, the EC50 worked out at 0.2 ± 0.06 nM.
